In this experiment the target is T1, recombinant human IP6K2 (Homo sapiens, UniProt Q9UHH9).
T1 construct: made in house; host or cells: Sf9 insect cells (baculovirus, pFASTBAC1)
T1 sequence (Q9UHH9 1-426): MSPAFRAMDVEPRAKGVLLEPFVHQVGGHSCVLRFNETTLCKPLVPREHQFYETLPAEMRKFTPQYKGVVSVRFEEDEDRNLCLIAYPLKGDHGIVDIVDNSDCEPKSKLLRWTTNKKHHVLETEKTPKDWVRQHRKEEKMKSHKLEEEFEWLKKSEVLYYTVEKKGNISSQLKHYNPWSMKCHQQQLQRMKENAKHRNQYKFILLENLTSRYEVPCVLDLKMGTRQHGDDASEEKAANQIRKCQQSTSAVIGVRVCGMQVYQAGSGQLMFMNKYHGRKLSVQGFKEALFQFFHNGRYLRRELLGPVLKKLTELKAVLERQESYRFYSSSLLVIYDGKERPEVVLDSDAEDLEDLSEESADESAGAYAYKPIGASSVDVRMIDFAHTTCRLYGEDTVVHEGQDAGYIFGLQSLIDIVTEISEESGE
As to the kind of experiment: ADP-Glo kinase assay, IP6K2. The class given is biochemical.

On to `O=c1c(O)c(-c2ccc(O)c(O)c2)oc2cc(O)cc(O)c12` [Quercetin, 3,3′,4′,5,7-pentahydroxylflavone, reference compound], for which the IC50 was 3.31 ± 0.27 µM.

Values taken from article PMC10075506, “Synthesis and biological evaluation of flavonoid-based IP6K2 inhibitors” (Journal of Enzyme Inhibition and Medicinal Chemistry, 2023).
